Some targets named below: M64-EAEIR; M64-AAEIR; M64-LAEIR; M64-DAEIR; M64-FAEIR.
What all share (experiment): cell-based or functional assay

Take “Carbonic anhydrase II, Homo sapiens (scaffold) (from UniProt P00918 4-259) (enzyme)”: the IC50 values (µM), colorimetric pNPA hydrolysis inhibition assay was 0.63 µM with M64-EAEIR; 0.02 µM with M64-AAEIR; 0.028 µM with M64-LAEIR; 0.089 µM with M64-DAEIR; 0.018 µM in the experiment with M64-FAEIR.

The record behind these values is patent US20240377408A1.
